Reference: patent US7727989B2, “4-benzimidazol-2-yl-pyridazine-3-one-derivatives, production and use thereof in medicaments” (Sanofi-Aventis Deutschland GmbH, priority 2004, dated 2010)

Amino acid sequences for entries named in this document (tags omitted). A change or cut given only in a name is not applied to a line headed by its entry.
UniProt P49841: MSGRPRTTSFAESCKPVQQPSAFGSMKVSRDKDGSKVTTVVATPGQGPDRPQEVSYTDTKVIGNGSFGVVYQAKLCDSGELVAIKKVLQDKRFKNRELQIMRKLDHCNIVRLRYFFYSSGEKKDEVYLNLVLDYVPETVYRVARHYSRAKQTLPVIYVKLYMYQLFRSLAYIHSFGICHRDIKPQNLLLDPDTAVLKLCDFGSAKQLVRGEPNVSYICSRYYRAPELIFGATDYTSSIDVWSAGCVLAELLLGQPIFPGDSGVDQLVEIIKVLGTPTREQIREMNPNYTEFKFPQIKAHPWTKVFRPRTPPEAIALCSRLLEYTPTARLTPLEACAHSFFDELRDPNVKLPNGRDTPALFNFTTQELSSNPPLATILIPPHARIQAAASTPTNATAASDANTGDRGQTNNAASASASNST

Target: human recombinant GSK-3β (Homo sapiens, UniProt P49841)
Assay: GSK-3β activity, AlphaScreen, primed glycogen synthase substrate peptide
Format: biochemical
Settings: human recombinant GSK-3β 0.18 nM, biot. phospho-glycogen synthase peptide 34 nM, 10 μM ATP, 60 min room temperature, triplicate
Method: Functional measurements to ascertain IC50 values:
GSK-3β activity is measured using human recombinant GSK-3β and a primed (pre-phosphorylated) substrate peptide (derived from glycogen synthase and containing the phosphorylation sites 3a, b, and c) on the basis of the AlphaScreen technology in 384-well plate format (small volume plate, white, Greiner). […] After adding […] Donor beads (20 μg/ml) and […] antibody (anti-phosphoglycogen synthase 1:2000)-coated Acceptor beads (40 μg/ml) in AlphaScreen detection buffer (20 mM Hepes, pH 7.4, 10 mM MgCl, 40 mM EDTA, 1 mM DTT, 0.1 mg/ml BSA), plates are incubated at room temperature (in the dark) overnight and then placed in a reader (Alphaquest or Fusion) to measure final fluorescence. IC50 values are calculated from the fitted curve corrected for bank values (absence of GSK-3β) and performed in triplicate.

IC50: 1.5 nM
SMILES: Cc1cc(-c2cc(-c3nc4ccc(CN5CCN(C)CC5)cc4[nH]3)c(=O)[nH]n2)cc(C)c1O [Example 43, 6-(4-Hydroxy-3,5-dimethylphenyl)-4-[6-(4-methylpiperazin-1-ylmethyl)-1H-benzimidazol-2-yl]-2H-pyridazin-3-one]
